{"sequences": {"note": "Chains of the proteins cited; added tags and fusions are not shown.", "UniProt Q14191, whole entry": "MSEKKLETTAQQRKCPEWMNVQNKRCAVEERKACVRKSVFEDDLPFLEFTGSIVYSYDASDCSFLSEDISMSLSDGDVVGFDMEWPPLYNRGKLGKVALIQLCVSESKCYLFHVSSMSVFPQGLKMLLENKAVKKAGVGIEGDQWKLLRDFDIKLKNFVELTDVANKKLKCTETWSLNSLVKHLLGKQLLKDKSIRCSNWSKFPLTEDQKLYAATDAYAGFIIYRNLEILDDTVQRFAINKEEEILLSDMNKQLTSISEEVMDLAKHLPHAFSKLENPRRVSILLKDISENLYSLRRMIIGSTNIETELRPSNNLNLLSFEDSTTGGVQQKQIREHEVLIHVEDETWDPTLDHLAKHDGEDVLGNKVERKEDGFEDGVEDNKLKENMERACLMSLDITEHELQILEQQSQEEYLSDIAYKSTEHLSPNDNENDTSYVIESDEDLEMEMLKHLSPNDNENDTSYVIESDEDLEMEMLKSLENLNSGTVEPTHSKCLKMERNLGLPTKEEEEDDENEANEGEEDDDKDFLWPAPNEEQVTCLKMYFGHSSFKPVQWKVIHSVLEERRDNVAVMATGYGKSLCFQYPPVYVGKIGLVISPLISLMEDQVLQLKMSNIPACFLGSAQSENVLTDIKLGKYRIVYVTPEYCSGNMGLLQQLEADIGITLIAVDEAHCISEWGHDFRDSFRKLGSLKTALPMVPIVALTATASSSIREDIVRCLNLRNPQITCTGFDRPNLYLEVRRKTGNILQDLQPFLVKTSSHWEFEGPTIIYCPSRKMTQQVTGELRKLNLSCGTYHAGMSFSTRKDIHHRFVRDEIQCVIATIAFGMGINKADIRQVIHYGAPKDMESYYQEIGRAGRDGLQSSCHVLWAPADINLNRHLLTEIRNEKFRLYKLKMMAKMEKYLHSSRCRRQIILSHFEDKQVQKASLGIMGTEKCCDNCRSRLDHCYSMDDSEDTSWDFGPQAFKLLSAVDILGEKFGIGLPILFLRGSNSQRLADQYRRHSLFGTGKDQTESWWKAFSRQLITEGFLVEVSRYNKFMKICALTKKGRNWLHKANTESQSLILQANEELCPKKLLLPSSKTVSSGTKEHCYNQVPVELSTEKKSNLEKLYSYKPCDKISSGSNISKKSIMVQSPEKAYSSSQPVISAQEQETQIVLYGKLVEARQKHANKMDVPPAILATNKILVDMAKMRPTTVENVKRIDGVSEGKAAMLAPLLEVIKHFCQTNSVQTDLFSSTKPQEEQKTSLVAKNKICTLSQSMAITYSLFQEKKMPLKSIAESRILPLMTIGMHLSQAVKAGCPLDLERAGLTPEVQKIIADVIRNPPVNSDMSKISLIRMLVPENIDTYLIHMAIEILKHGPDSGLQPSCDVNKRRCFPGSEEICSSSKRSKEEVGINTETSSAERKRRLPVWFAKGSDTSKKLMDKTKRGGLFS"}, "source": "PubChem BioAssay AID651768", "about": "(National Center for Advancing Translational Sciences (NCATS), 2012)", "note": "Only a part is listed here, and it is no random draw. The source made the active and inactive calls. Calls come from the whole dose curve; as a rule, active = well fitted inhibition curve with a large enough effect; inconclusive = small, poorly fitted or top-dose-only effect; inactive = no such curve, though single readings can be large or run the other way. % is set by controls: 0 for no effect and ±100 for the full control effect.", "data": [{"target": "Bifunctional 3'-5' exonuclease/ATP-dependent helicase WRN (Homo sapiens) (UniProt Q14191)", "test": "qHTS for Inhibitors of WRN Helicase; note: nearly all actives have a fitted effect of over 55% in size", "details": "WRN helicase unwinding, fluorescent forked duplex, kinetic; at 114 µM (top of the series) unless noted", "text": "Inhibition of DNA repair is proposed as a strategy for combating cancer. Synthetic lethality is an approach that exploits preexisting DNA repair deficiencies in certain tumors to develop inhibitors of DNA repair pathways that compensate for the tumor-associated DNA repair deficiency. Because helicases play critical roles in the DNA damage response and in DNA repair, particularly in actively dividing and replicating cells, characterization of synthetic lethal relationships of DNA helicases may be of value in developing improved anticancer treatment strategies; moreover, small molecules that specifically target a given DNA helicase may be useful for understanding its role in cellular nucleic acid metabolism. The goal of this project is to identify small molecule, non-covalent chemical inhibitors of the Werner syndrome (WS) helicase (WRN), which plays an important role in cell proliferation, the replication stress response, and DNA repair. […] The WRN gene product that is defective in the chromosomal instability disorder has DNA helicase and exonuclease activities and interacts with a number of nuclear proteins to maintain genomic stability. We will employ an optimized high-throughput screening assay that utilizes a fluorescence intensity modulation scheme with a fluorophore and quencher positioned near one another within a duplex deoxyoligonucleotide that contains a single forked structure. After a high-throughput screen of the ~350,000-member Molecular Libraries Small Molecule Repository (MLSMR) collection, followed by data analysis and hit selection, a panel of confirmatory, as well as secondary and ternary, assays will be employed to identify high-confidence WRN inhibitors. Structure-activity relationships will be investigated for the top candidate inhibitor series through medchem expansion. These are the results of the primary screening campaign against the MLSMR. NIH Chemical Genomics Center [NCGC] NIH Molecular Libraries Probe Centers Network [MLPCN] MLPCN Grant: MH096530 Assay Submitter (PI): Robert Brosh, National Institute of Aging\nThree muL of reagents (buffer in columns 3 and 4 as negative controls; WRN at 20 nM final concentration in columns 1 and 2 as positive controls; columns 5-48 as test reactions) will be dispensed into a 1536-well Greiner black plate via solenoid-valve based nanoliter dispensers. Compounds (23 nL each in columns 5-48) and control (23 nL each in column 2 as dose-response) will be transferred via a Kalypsys pintool equipped with a 1536-pin array. Plates will be incubated for 15 min at room temperature, and then 1 µL of substrate (100 nM forked duplex oligonucleotide and 2 mM ATP final concentrations) will be added to start reaction, and plate will be transferred into a ViewLux high-throughput CCD imager where reaction progress is measured in kinetic mode using standard red-fluorescence optics (excitation filter 525 nm, emission filter 598 nm).", "values": [{"smiles": "CCOC(=O)c1ccc(NP(C)(=O)Oc2ccc(OC)cc2)cc1", "note": "(stereo not given)", "activity change, negative = inhibition": "inactive: -12.3% [at 57.1 µM]"}, {"smiles": "CCOP(C)(=S)SCC(=O)NC(C)C(=O)O", "note": "(stereo not given)", "activity change, negative = inhibition": "inactive: -0.92% [at 57.1 µM]"}, {"smiles": "CP(=O)(Nc1ccccn1)Oc1ccc(Cl)cc1", "note": "(stereo not given)", "activity change, negative = inhibition": "inactive: 177%"}, {"smiles": "CP(=O)(Nc1ccc(SC(F)(F)F)cc1)Oc1ccc(Cl)cc1", "note": "(stereo not given)", "activity change, negative = inhibition": "inactive: -10.8%"}, {"smiles": "Cc1cccc(C)c1OP(C)(=O)Nc1ccc(SC(F)(F)F)cc1", "note": "(stereo not given)", "activity change, negative = inhibition": "inactive: -5.26%"}, {"smiles": "CP(=O)(Oc1ccccc1)OC(c1ccccc1)C(F)(F)F", "note": "(stereo not given)", "activity change, negative = inhibition": "inactive: -7.42%"}, {"smiles": "CP(=O)(NC(=O)Nc1ccccc1)Oc1ccccc1", "note": "(stereo not given)", "activity change, negative = inhibition": "inactive: -8.37%"}, {"smiles": "CCc1ccc(OP(C)(=O)N2CCN(c3ccc([N+](=O)[O-])cc3)CC2)cc1", "note": "(stereo not given)", "activity change, negative = inhibition": "inactive: -5.42%"}, {"smiles": "Cc1cc(C)cc(OP(C)(=O)Nc2ccc(SC(F)(F)F)cc2)c1", "note": "(stereo not given)", "activity change, negative = inhibition": "inactive: -8.91%"}, {"smiles": "O=[N+]([O-])c1cc([N+](=O)[O-])c(-c2cnn(-c3ccccc3)c2)c([N+](=O)[O-])c1", "activity change, negative = inhibition": "inactive: -10.3%"}, {"smiles": "O=[N+]([O-])c1cc([N+](=O)[O-])c(-n2nnc3ccccc32)c([N+](=O)[O-])c1", "activity change, negative = inhibition": "inactive: -17.6%"}, {"smiles": "CN(Cc1cccnc1)C(=O)COc1ccc(Cl)c(Cl)c1.O=[N+]([O-])c1cc([N+](=O)[O-])c(O)c([N+](=O)[O-])c1", "activity change, negative = inhibition": "inactive: 7.01%"}, {"smiles": "CN1CCCCC1COC(=O)C1(O)c2ccccc2CCc2ccccc21", "note": "(stereo not given)", "activity change, negative = inhibition": "inactive: -12.7%"}, {"smiles": "COc1ccccc1OP(C)(=O)Nc1c(C)cccc1C", "note": "(stereo not given)", "activity change, negative = inhibition": "inactive: 4.77%"}, {"smiles": "COc1ccc(-c2ccccn2)cc1.O=[N+]([O-])c1cc([N+](=O)[O-])c(O)c([N+](=O)[O-])c1", "activity change, negative = inhibition": "inactive: -2.4% [at 57.1 µM]"}, {"smiles": "CCCOc1ccc(NP(C)(=O)Oc2ccc(Cl)cc2)cc1", "note": "(stereo not given)", "activity change, negative = inhibition": "inactive: -19.3%"}, {"smiles": "CP(=O)(Nc1ccc(SC(F)(F)F)cc1)Oc1ccccc1", "note": "(stereo not given)", "activity change, negative = inhibition": "inactive: -14%"}, {"smiles": "CC1=C2N=C(C=C3N=C(C(C)=C4[N-][C@@](C)([C@@H]5N=C1[C@](C)(CCC(=O)NC[C@@H](C)OP(=O)([O-])O[C@H]1[C@@H](O)[C@@H](n6cnc7cc(C)c(C)cc76)O[C@@H]1CO)[C@H]5CC(N)=O)[C@@](C)(CC(N)=O)[C@@H]4CCC(N)=O)[C@@](C)(CC(N)=O)[C@@H]3CCC(N)=O)C(C)(C)[C@@H]2CCC(N)=O.[C-]#N.[Co+3]", "activity change, negative = inhibition": "inactive: -6.29%"}, {"smiles": "O=[N+]([O-])c1cc([N+](=O)[O-])c(Nc2nnnn2CCO)c([N+](=O)[O-])c1", "activity change, negative = inhibition": "inactive: 7.91%"}, {"smiles": "Cc1ccc(C)c(NP(C)(=O)Oc2ccccc2)c1", "note": "(stereo not given)", "activity change, negative = inhibition": "inactive: 1.4% [at 57.1 µM]"}, {"smiles": "Cc1cc(C)cc(OP(C)(=O)Nc2ccccn2)c1", "note": "(stereo not given)", "activity change, negative = inhibition": "inactive: -2.73%"}, {"smiles": "CP(=O)(Nc1cccc(Br)c1)Oc1ccccc1", "note": "(stereo not given)", "activity change, negative = inhibition": "inactive: -4.97%"}, {"smiles": "COc1ccccc1OP(C)(=O)Nc1cccc(Br)c1", "note": "(stereo not given)", "activity change, negative = inhibition": "inactive: 5.85%"}, {"smiles": "CCOC(=O)c1ccc(NP(C)(=O)Oc2cc(C)cc(C)c2)cc1", "note": "(stereo not given)", "activity change, negative = inhibition": "inactive: -2.42%"}, {"smiles": "Cc1cc(C)cc(OP(C)(=O)Nc2ccc(C)cc2C)c1", "note": "(stereo not given)", "activity change, negative = inhibition": "inactive: -0.508%"}]}]}
